The target in assay [1] is complement alternative pathway in human serum. As to the kind of experiment: Inhibition of Wieslab complement alternative pathway activation (enzyme activity determination). The note with it: read-out: IC50 for alternative pathway membrane attack complex (AP MAC), human serum diluted 1:23, Wieslab alternative pathway kit, absorbance at 405 nm.
Assay [2] concerns the target human complement Factor B protein (Homo sapiens, UniProt P00751). The assay is described as follows: Human complement Factor B protein binding determination (TR-FRET method).

By UniProt entry, the sequences of proteins in these tests, tags left out. Residues count along the entry.
UniProt P00751, 26-764 limits assumed: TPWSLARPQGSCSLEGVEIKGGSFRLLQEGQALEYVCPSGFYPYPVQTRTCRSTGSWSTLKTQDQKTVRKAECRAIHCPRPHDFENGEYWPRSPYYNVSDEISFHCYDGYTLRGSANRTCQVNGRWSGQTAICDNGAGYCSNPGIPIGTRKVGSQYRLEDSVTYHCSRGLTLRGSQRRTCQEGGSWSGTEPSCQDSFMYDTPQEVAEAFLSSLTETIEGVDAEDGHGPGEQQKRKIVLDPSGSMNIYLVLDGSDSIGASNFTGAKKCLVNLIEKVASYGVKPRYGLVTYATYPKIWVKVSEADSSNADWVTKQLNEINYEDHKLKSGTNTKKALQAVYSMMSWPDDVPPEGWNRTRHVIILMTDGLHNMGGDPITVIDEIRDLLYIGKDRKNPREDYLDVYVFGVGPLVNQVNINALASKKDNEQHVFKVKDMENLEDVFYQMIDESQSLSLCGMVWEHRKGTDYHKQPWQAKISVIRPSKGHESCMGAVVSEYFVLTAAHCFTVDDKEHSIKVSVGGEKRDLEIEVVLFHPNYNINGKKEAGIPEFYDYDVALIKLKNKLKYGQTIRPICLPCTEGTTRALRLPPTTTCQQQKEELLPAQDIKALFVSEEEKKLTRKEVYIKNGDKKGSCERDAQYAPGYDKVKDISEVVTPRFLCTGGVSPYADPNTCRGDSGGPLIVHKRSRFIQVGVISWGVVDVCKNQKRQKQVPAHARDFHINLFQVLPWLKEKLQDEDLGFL

Like-named read-outs stand apart in the source and are kept apart here.

On to `CCOC1CC2CCC(c3ccc(C(=O)O)cc3)(C1)N2Cc1c(C)cc(C)c2[nH]ccc12` (stereo not shown), for which the IC50 is less than 100 nM in assay [1] and less than 100 nM in assay [2] (read-out: IC50 for binding of human complement Factor B protein, biotinylated Factor B 25 nM, Cy5-labeled probe 75 nM, PBS pH 7.4, 2 h). Take `COc1cc(C)c2[nH]ccc2c1CN1C2CCC1(c1ccc(C(=O)O)cc1)CC(OC(F)F)C2` (stereo not shown): the half-maximal inhibitory concentration (IC50) in assay [2] (read-out: IC50 for binding of human complement Factor B protein, biotinylated Factor B 25 nM, Cy5-labeled probe 75 nM, PBS pH 7.4, 2 h, tested form: HCl) was less than 100 nM. Take `CCOC1CC2CCC(c3ccc(C(=O)O)cc3)(C1)N2Cc1c(OC)cc(C)c2[nH]ccc12` (single isomer, unassigned): the IC50 in assay [1] (tested form: formate) is less than 100 nM.

The values are drawn from patent US20240217953A1, “BICYCLIC SUBSTITUTED AROMATIC CARBOXYLIC ACID COMPOUNDS” (CHIA TAI TIANQING PHARMACEUTICAL GROUP CO., LTD., priority 2021, published 2024).
